In ChEMBL document CHEMBL1275501, “Plasmid-mediated quinolone resistance pump QepA2 in an Escherichia coli isolate from France” (2008) one finds MIC data, which are given here for one sequence.

This test concerns Escherichia coli. The conditions noted are these: BicA.

For orientation: MIC means the lowest concentration found to suppress growth. Read a low MIC as greater potency. Take GENTAMICIN: the MIC is 0.5 µg/mL.
